The data set can be described thus: Pharmacokinetics in rats, i.v. The settings on record: rat, 1 μmol/kg i.v., n = 5. The class given is in vivo. The protocol:
SD Rats were randomly divided into three groups (n = 5). […] All blood samples were immediately centrifuged at 5000 rpm for 5 min at room temperature, and the plasma obtained was stored at −20 °C before analysis. To the rat plasma (100 μL) was added 10 μL internal standard (80 ~ 100 ng/ml Carbamazepine), followed by mixing with 200 μL methanol with vortexing for 1 min. At this stage, certain amounts of proteins may precipitate out, thus this mixture was centrifuged at 12,000 rpm for 5 min at room temperature to achieve complete separation. The 20 μl supernatant was injected into a HPLC (Symbiosis, Spark, Holland; column: 50 mm × 2.1 mm, 5 μm, Agilent Eclipse Plus) –MS/MS system (ABI 4000 Q-Trap triple quadrupole mass spectrometer) equipped with electrospray ionization (ESI) source in the positive ion mode (Foster City, USA). The HPLC elution gradient was as follows: 0–0.5 min, 5–5% (B); 0.5–3 min, 5–95% (B); 3–4 min, 95–95% (B); 4–4.06 min, 95–5% (B); 4.06–6 min, 5–5% (B); the flow-rate was 0.4 ml/min; A was 0.1% formic acid/Waterl, B was 0.1% formic acid/methanol. […]
The statistical significance of the difference among pharmacokinetic parameters was determined using the mean comparison Student’s t-test, and the resulting P values were lower than 0.05, which is considered to be statistically significant.

Each structure is given as a SMILES string.

Consider one molecule from article PMC4585835 (Scientific Reports, 2015).

`CC[C@H](C)[C@H](NC(=O)[C@H](CCC(=O)O)NC(=O)[C@H](CCC(=O)O)NC(=O)[C@H](Cc1ccccc1)NC(=O)[C@H](CC(=O)O)NC(=O)CNC(=O)[C@H](CC(N)=O)NC(=O)CNC(=O)CNC(=O)CNC(=O)CNC(=O)[C@@H]1CCCN1C(=O)[C@H](CCCNC(=N)N)NC(=O)[C@@H]1CCCN1C(=O)[C@H](N)Cc1ccccc1)C(=O)N1CCC[C@H]1C(=O)N[C@@H](CCC(=O)O)C(=O)N[C@@H](CCC(=O)O)C(=O)N[C@@H](Cc1ccc(O)cc1)C(=O)N[C@@H](CC(C)C)C(=O)O` [Hirulog-1, reference compound] had a T1/2 of 15.1 ± 1.3 min. The same molecule gave a half-life (SD, plasma, iv, 1 umol/kg) below 16 min.

For orientation: half-life means how long it takes for the measured level to halve.
